{
  "source": "patent US12697321B2",
  "about": "(dated 2026)",
  "test_system": "CCI rats (chronic constriction of the sciatic nerve of Wistar rats)",
  "data": [
    {"smiles": "C/C(=C\\C1C/C(=C/CCc2ccoc2)C(=O)O1)CCCc1ccoc1", "note": "(centres unmarked) [nitenin]", "values": [
      {"measurement": "efficacy, intraperitoneal administration", "setting": "intraperitoneally", "value": "successful"},
      {"measurement": "efficacy, oral administration", "setting": "via oral administration", "value": "successful"}
    ]}
  ]
}
